What was measured:
BRD4 BD1 = BRD4 BD1 (Homo sapiens, UniProt O60885); assay: NanoBRET bromodomain assay, NanoLuc-BRD4-BD1 in HEK293 cells; settings: read-out: BRD4 BD1 IC50, 2 hours, IC50 rounded to nearest integer for banding
BRD4 BD2 = BRD4 BD2 (Homo sapiens, UniProt O60885); assay: NanoBRET bromodomain assay, NanoLuc-BRD4-BD2 in HEK293 cells; type: binding

In the case of `Cn1cc(-c2cccnc2)c(-c2cn(C)c(=O)c3[nH]c(-c4cnn(C(F)(F)F)c4)c(Cl)c23)cc1=O`, the IC50 (BRD4 BD1) is reported as greater than 1 µM, the “Fold Selectivity BRD4 BD1/BD2” value (BRD4 BD2; IC50 BD1/IC50 BD2, qualitative if an IC50 is at the upper limit) is reported as “x (Fold >2 and ≤50)” and the IC50 (BRD4 BD2; read-out: BRD4 BD2 IC50, NanoBRET, HEK293 cells, 2 hours, IC50 rounded to nearest integer for banding) is reported as 0.2 to 1 µM.

Reference: US20260217701A1, “SELECTIVE BET INHIBITORS AND USES THEREOF” (Tay Therapeutics Limited, priority 2022, published 2026)
